From the NIST ThermoML archive (doi:10.1021/acs.jced.7b00945)
Numbers after ± are expanded uncertainties.

Test: refractive index (Na D-line) (dimensionless); wn = mass fraction of the nth substance listed
Conditions: 303 K, 100 kPa, Liquid, Standard Abbe refractometry

Work on OCCOCCOCCOCCO [tetraethylene glycol] + O yielded a refractive index (w2 = 0.1) of 1.44579 ± 0.00042, a refractive index (w2 = 0.21) of 1.43414 ± 0.00042 and a refractive index (w2 = 0.3) of 1.42239 ± 0.00043. For the same molecule, the refractive index (w2 = 0.4) was 1.40949 ± 0.00043, the refractive index (w2 = 0.5) was 1.39626 ± 0.00042 and the refractive index (w2 = 0.6) was 1.38394 ± 0.00043. For the same molecule, the refractive index (w2 = 0.7) was 1.3693 ± 0.00043, the refractive index (w2 = 0.79) was 1.35757 ± 0.00041 and the refractive index (w2 = 0.89) was 1.34468 ± 0.0004.
